Assay results reported in ChEMBL document CHEMBL1137702, “Identification of hydrolytically stable and selective P2Y(1) receptor agonists” (Eur J Med Chem, 2009).

By UniProt entry, the sequences of proteins in these tests, tags left out. Where a name states a change or a piece, a line headed by the entry shows the natural chain unless it says otherwise.
UniProt P49652: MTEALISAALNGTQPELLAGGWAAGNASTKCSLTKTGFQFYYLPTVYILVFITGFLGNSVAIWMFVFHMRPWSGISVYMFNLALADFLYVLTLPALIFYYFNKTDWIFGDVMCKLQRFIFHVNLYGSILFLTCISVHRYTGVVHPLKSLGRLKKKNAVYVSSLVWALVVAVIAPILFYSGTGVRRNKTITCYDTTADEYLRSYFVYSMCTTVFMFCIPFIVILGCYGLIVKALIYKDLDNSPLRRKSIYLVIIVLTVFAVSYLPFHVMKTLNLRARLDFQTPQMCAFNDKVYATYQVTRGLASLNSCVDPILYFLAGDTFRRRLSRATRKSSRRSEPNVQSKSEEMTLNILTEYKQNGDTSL

Target: P2Y purinoceptor 1 (Meleagris gallopavo, UniProt P49652)
Experiment: Agonist activity at turkey P2Y1 receptor expressed in human 1321N1 cells assessed as increase in intracellular calcium concentration by dual-excitation spectrofluorimetric analysis
Format: functional, cell-based
Summary of the method: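 1321N1 astrocytoma cells stably expressing the receptor (turkey P2Y1, human P2Y2, human P2Y4, rat P2Y6) were grown with G-418 selection. Fura-2-loaded cell suspensions were exposed at 37 °C in 10 mM HEPES-buffered saline pH 7.4 with 1 mM CaCl2 and 1 mM MgCl2. Peak [Ca2+]i rise was measured over a range of concentrations to derive EC50.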

For `CSc1nc(N)c2ncn([C@@H]3O[C@H](COP(=O)(O)OP(=O)(O)O)[C@@H](O)[C@H]3O)c2n1`, the EC50 was 4 nM.
